Inhibition data for 26 molecules are collected here from PubChem BioAssay AID463190 (Sanford-Burnham Center for Chemical Genomics, 2010).

The entries are a selection whose mix differs from that of the whole data set. Some salts or complexes appear as unconnected parts, following the source record. Active and inactive are the calls of the source.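 Rule for the calls: active = inhibition of at least 40%; inactive = the rest.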

This experiment in a line: growth inhibition of tim10-1 ts yeast – luminescence, uHTS, primary screen (AID 463190).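 Note: mutant grown at 25 °C; 0% = DMSO wells with yeast and 100% = wells holding no yeast.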 The conditions noted are these: S. cerevisiae tim10-1 ts strain growth, BacTiter-Glo, 24 h; at 20 µM; hits give high values.
On to `Cc1ccccc1NP(C)(=O)Nc1ccccc1C`, for which the inhibition is inactive: 22%.

In the case of `CP(=O)(Nc1ccc2c(c1)OCCO2)Oc1ccccc1` (stereo unspecified), the inhibition is inactive: 0.061%.

Turning to `CCOP(C)(=S)SCC(=O)NC(C)(CC)C(=O)O` (stereo unspecified), the inhibition is inactive: 1.56%.

Take `CP(=O)(Nc1ccc(SC(F)(F)F)cc1)Oc1ccc(F)cc1` (stereo unspecified): the inhibition was inactive: 3.76%.

Turning to `O=[N+]([O-])c1cc([N+](=O)[O-])c(NCC2CCS(=O)(=O)C2)c([N+](=O)[O-])c1` (stereo unspecified), the inhibition is inactive: 14.1%.

For `COc1ccc(NP(C)(=O)Oc2ccccc2OC)cc1` (stereo unspecified), the inhibition is inactive: -3.24%.

Take `CN(C)CCOC(=O)C(O)(c1ccccc1)C1CCCCC1` (stereo unspecified): the inhibition is inactive: -10%.

On to `COc1ccc(OP(C)(=O)Nc2cccc(Br)c2)cc1` (stereo unspecified), for which the inhibition is inactive: 28.4%.

For `O=[N+]([O-])c1cc([N+](=O)[O-])c(OC2CCCCC2O)c([N+](=O)[O-])c1` (stereo unspecified), the inhibition is inactive: 7.67%.

For `CCCCCOc1ccc(NP(C)(=O)Oc2ccc(Cl)cc2Cl)cc1` (stereo unspecified), the inhibition is active: 41.2%.

In the case of `CP(=O)(Nc1ccccc1)Oc1ccc(F)cc1` (stereo unspecified), the inhibition is inactive: -12.6%.

As for `CCN(CC)CCCOC(=O)C(O)(c1ccccc1)C1CCCCC1` (stereo unspecified), the inhibition was inactive: -3.96%.

For `COc1ccc(OP(C)(=O)Nc2ccc(SC(F)(F)F)cc2)cc1` (stereo unspecified), the inhibition is inactive: 3.76%.

As for `CCOC(=O)c1ccc(NP(C)(=O)Oc2ccc(F)cc2)cc1` (stereo unspecified), the inhibition was inactive: -1.04%.

`COc1ccc2c(c1O)-c1c(O)c(OC)cc3c1[C@H](C2)[N+](C)(C)CC3.O=[N+]([O-])c1cc([N+](=O)[O-])c([O-])c([N+](=O)[O-])c1[O-]`: the inhibition was inactive: 2.24%.

For `O=C(OCCN1CCN(CCOCc2ccccc2)CC1)C(O)(c1ccccc1)c1ccccc1`, the inhibition is inactive: 10.8%.

Consider `O=C(OC1CN2CCC1CC2)c1ccc([N+](=O)[O-])cc1` (stereo unspecified), for which the inhibition is inactive: -93.2%.

With `CC(C)c1ccc(OP(C)(=O)Nc2ccc(SC(F)(F)F)cc2)cc1` (stereo unspecified), the inhibition is inactive: 38.1%.

With `CP(=O)(Nc1ccccc1F)Oc1ccccc1` (stereo unspecified), the inhibition was inactive: 14%.

With `CCc1ccc(OP(C)(=O)O)cc1`, the inhibition was inactive: -9.05%.

As for `CP(=O)(Nc1ccccn1)Oc1ccccc1` (stereo unspecified), the inhibition is inactive: 18.4%.

As for `COc1ccccc1OP(C)(=O)Nc1ccc(C)cc1C` (stereo unspecified), the inhibition was inactive: 13.3%.

For the molecule `O=[N+]([O-])c1cc([N+](=O)[O-])c(Nc2ccccn2)c([N+](=O)[O-])c1`, the inhibition is active: 59.2%.

As to `Cc1c(NP(C)(=O)Oc2ccc(C(C)C)cc2)c(=O)n(-c2ccccc2)n1C` (stereo unspecified), the inhibition was inactive: -8.35%.

As for `CN(C)CCOC(=O)C(O)(c1ccccc1)C1CCCC1` (stereo unspecified), the inhibition was inactive: 14.7%.

`COc1ccc(OP(C)(=O)Nc2ccccn2)cc1` (stereo unspecified): the inhibition is inactive: 11.5%.
